Data published in paper PMC8878748, “Broad-Spectrum Antiviral Activity of the Amphibian Antimicrobial Peptide Temporin L and Its Analogs” (International Journal of Molecular Sciences, 2022).

Columns and labels:
[1] = MTT cytotoxicity assay on Vero cells; type: cell-based; details: calculated after 2 h of peptide treatment
MeV = details: 2 h

**Q.** With `CCCC[C@H](NC(=O)[C@@H](CC(C)C)NC(=O)[C@H](Cc1ccccc1)NC(=O)[C@H](CCCCN)NC(=O)[C@H](CO)NC(=O)[C@H](Cc1ccccc1)NC(=O)[C@H](Cc1c[nH]c2ccccc12)NC(=O)[C@@H]1CCCN1C(=O)[C@@H](NC(=O)[C@H](Cc1ccccc1)NC(=O)CNC(=O)CNC(=O)[C@@H](N)CSCC(=O)NCCOCCOCCOCCOCCC(=O)O[C@H]1CC[C@@]2(C)C(=CC[C@H]3[C@@H]4CC[C@H]([C@H](C)CCCC(C)C)[C@@]4(C)CC[C@@H]32)C1)C(C)C)C(=O)N[C@@H](CCCNC(=N)N)C(=O)N[C@H](C(=O)N[C@@H](CC(C)C)C(N)=O)[C@@H](C)CC` [TL6.4, H-[Cholesterol-PEG4]-Cys-Gly-Gly-Phe-Val-Pro-Trp-Phe-Ser-Lys-Phe-DLeu-Nle-Arg-Ile-Leu-NH2] as the compound, how does the CC50 [1] read?
**A.** > 100 µM

**Q.** What about the IC50 (MeV) of the same compound?
**A.** 28.9 µM

**Q.** What about the IC90 (MeV) of the same compound?
**A.** 49.9 µM
